The test concerns the target T1, Apelin receptor (Homo sapiens, UniProt P35414).
T1 sequence (P35414 whole entry): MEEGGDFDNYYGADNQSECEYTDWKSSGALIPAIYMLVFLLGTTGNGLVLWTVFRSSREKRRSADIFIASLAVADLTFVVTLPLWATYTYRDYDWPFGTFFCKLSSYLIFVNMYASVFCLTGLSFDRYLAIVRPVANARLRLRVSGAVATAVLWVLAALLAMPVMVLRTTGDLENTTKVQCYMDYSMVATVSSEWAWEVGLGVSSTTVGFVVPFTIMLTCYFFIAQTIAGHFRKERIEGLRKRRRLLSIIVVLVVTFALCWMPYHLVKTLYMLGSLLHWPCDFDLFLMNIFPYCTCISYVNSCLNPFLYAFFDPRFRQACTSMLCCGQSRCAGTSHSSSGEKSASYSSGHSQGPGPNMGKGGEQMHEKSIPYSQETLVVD

What is called EC50 is the concentration giving half of the maximal effect. In the case of `COc1cccc(OC)c1-n1c(NS(=O)(=O)[C@@H](C)[C@H](O)c2ncc(C)cn2)nnc1-c1cncc(C)c1` [US9845310, Example 371.0], the EC50 came to 32 nM.

Source of the values: BindingDB's records for patent US9845310 (Amgen, 2017).
